## Yeast mating assay 2: variants of the scFv Ab-95

Source: Engelhart et al. 2022 (doi:10.1038/s41597-022-01779-4), MIT Lincoln Laboratory and A-Alpha Bio; data file from the FLAb repository.

Binding partner: SARS-CoV-2 spike HR2 peptide, sequence PDVDLGDISGINAS.

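The starting antibody came from a phage panning campaign against this peptide. Variants in AAYL52 differ from the parent at up to three CDR positions; double and triple changes were sampled at random. Affinity was read by AlphaSeq, a pooled yeast mating assay with surface-displayed partners. Binding brings cells together so that they mate, and sequencing counts the barcode pairs among the diploids. Read counts were normalised to the haploid input and turned into Kd by a linear fit to BCL2-family pairs of known affinity, for each replicate. The assay was run in three technical replicates.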

Parent scFv Ab-95: VH joined to VL by a 15-residue (Gly4Ser)3 linker. Changes lie in the light chain CDRs alone.
VH: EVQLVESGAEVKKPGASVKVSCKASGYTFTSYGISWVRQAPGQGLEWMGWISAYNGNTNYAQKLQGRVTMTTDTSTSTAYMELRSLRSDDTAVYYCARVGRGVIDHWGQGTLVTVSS
VL: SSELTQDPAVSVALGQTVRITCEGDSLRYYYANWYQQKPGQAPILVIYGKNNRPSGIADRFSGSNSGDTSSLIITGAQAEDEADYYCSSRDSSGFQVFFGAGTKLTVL

Substitutions are numbered in sequence along the VL above, starting at 1 (not Kabat).
Every variant below is changed at Y31 of the VL (sequential numbering).
Values are log10 of the apparent Kd in nM; lower means stronger binding.
Replicates are averaged; those with no signal do not enter the mean.
"nd" marks a missing value. The strain was present, yet no cells mated with the target were sequenced in any replicate, which points to weak or no binding.

* Y29L+Y31C+N52W = 3.33 (2 of 3 replicates)
* Y31W+G94K+V97Q = 2.75 (3 of 3 replicates)
* Y31P+N33K+F98W = 4.20 (2 of 3 replicates)
* L27K+Y31N+F98A = 2.27 (3 of 3 replicates)
* Y31R+N52G+P54M = 2.58 (3 of 3 replicates)
* L27I+Y31G+F95H = 3.57 (3 of 3 replicates)
* S26F+Y31M+S55N = 3.46 (3 of 3 replicates)
* Y31G+N33G+S89L = nd (0 of 3 replicates)
* D25W+Y31P+N33P = 4.51 (3 of 3 replicates)
* Y31H+R90C+F95C = 2.95 (3 of 3 replicates)
* D25K+Y29P+Y31G = 2.09 (3 of 3 replicates)
* D25A+Y31P+S89N = 2.60 (3 of 3 replicates)
* S26D+Y31L+N51F = 2.77 (3 of 3 replicates)
* Y31L+S88K+V97A = 2.98 (2 of 3 replicates)
* S26Q+Y31R+A32I = 3.34 (1 of 3 replicates)
* Y31G+G49Y+S88E = 2.59 (3 of 3 replicates)
* Y31T = 1.89 (3 of 3 replicates)
* Y31R+S55W+F98S = 3.36 (3 of 3 replicates)
* Y29Q+Y31K+D91I = 3.89 (3 of 3 replicates)
* S26H+Y31L+R53C = nd (0 of 3 replicates)
* Y31V+R53P+S92F = 4.28 (1 of 3 replicates)
* E23R+Y31T+K50Y = 1.58 (3 of 3 replicates)
* D25L+Y31M+N51C = 3.60 (1 of 3 replicates)
* Y31A+S93L = 2.43 (3 of 3 replicates)
* Y31W+N51A+R53P = 2.95 (3 of 3 replicates)
* Y31R+N33L+S92K = nd (0 of 3 replicates)
* Y31A+S89T = 1.07 (3 of 3 replicates)
* Y31N+P54W+S88A = 2.09 (3 of 3 replicates)
* G24Q+Y31R+N51F = nd (0 of 3 replicates)
* Y31P+R53K+R90G = 3.35 (2 of 3 replicates)
* Y30V+Y31M = 1.84 (3 of 3 replicates)
* D25G+Y31S+Q96V = 3.25 (3 of 3 replicates)
* Y29R+Y31C = 1.82 (3 of 3 replicates)
* Y31E+S93Y+V97T = 2.81 (2 of 3 replicates)
* G24S+Y31P+F98V = 2.45 (3 of 3 replicates)
* Y31I+R53T+F98H = 4.12 (2 of 3 replicates)
* G24D+Y31Q+F95T = 2.50 (3 of 3 replicates)
* Y29I+Y31H+S92I = 2.98 (3 of 3 replicates)
* Y31P+R53H = 1.25 (3 of 3 replicates)
* S26R+L27N+Y31T = 4.44 (3 of 3 replicates)
* Y31D+R53P = 1.95 (3 of 3 replicates)
* Y31V+R90S = 5.23 (1 of 3 replicates)
* Y31I+S93I+F95C = 2.99 (3 of 3 replicates)
* Y31W+P54W+F95E = 3.91 (3 of 3 replicates)
* Y30N+Y31N+P54F = 0.65 (3 of 3 replicates)

A selection of 5 entries from above:

- Y31P+R53K+R90G = 3.35 (2 of 3 replicates)
- Y30N+Y31N+P54F = 0.65 (3 of 3 replicates)
- D25A+Y31P+S89N = 2.60 (3 of 3 replicates)
- G24D+Y31Q+F95T = 2.50 (3 of 3 replicates)
- D25L+Y31M+N51C = 3.60 (1 of 3 replicates)

Background: pairings of library AAYL52 with three empty control strains gave a value in 28% of cases (median 3.91, 5th percentile 2.90). Values in that range, when seen in few replicates, are hard to tell from nonspecific mating.